Experimental data as given in PubChem BioAssay (NCI).
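Compound exposure: 48 hours, 5 concentrations, 96-well plates. The concentration for 50% growth inhibition is given as GI50. The concentration for full growth arrest is given as TGI.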

Legend:
Assay in all cases: NCI tumour cell line growth inhibition, 48 h
BT-549 breast = test system: BT-549 breast
SF-295 CNS = test system: SF-295 CNS
NCI-H226 lung = test system: NCI-H226 lung
HL-60(TB) leukemia = test system: HL-60(TB) leukemia
SK-OV-3 ovarian = test system: SK-OV-3 ovarian
MALME-3M melanoma = test system: MALME-3M melanoma
PC-3 prostate = test system: PC-3 prostate
SR leukemia = test system: SR leukemia
OVCAR-3 ovarian = test system: OVCAR-3 ovarian
DU-145 prostate = test system: DU-145 prostate
SF-268 CNS = test system: SF-268 CNS
786-0 renal = test system: 786-0 renal
SW-620 colon = test system: SW-620 colon
U251 CNS = test system: U251 CNS
RPMI-8226 leukemia = test system: RPMI-8226 leukemia
CCRF-CEM leukemia = test system: CCRF-CEM leukemia
OVCAR-5 ovarian = test system: OVCAR-5 ovarian
SNB-75 CNS = test system: SNB-75 CNS
SN12C renal = test system: SN12C renal
COLO 205 colon = test system: COLO 205 colon
NCI-H322M lung = test system: NCI-H322M lung
EKVX NSCLC = test system: EKVX NSCLC
RXF 393 renal = test system: RXF 393 renal
SK-MEL-28 melanoma = test system: SK-MEL-28 melanoma
ACHN renal = test system: ACHN renal
SNB-19 CNS = test system: SNB-19 CNS
NCI-H522 lung = test system: NCI-H522 lung
M14 melanoma = test system: M14 melanoma
MDA-MB-435 = test system: MDA-MB-435
UO-31 renal = test system: UO-31 renal

In the case of `C[As](C)SCC(O)CO` (centres undefined), the GI50 (BT-549 breast) is reported as 1.34 µM, the TGI (BT-549 breast) is reported as 7.76 µM and the GI50 (SF-295 CNS) is reported as 8.86 µM. It also gave a TGI (SF-295 CNS) of 24.8 µM, a GI50 (NCI-H226 lung) of 6.69 µM and a TGI (NCI-H226 lung) of 19.1 µM. For the same compound, the GI50 (HL-60(TB) leukemia) was 1.84 µM, the TGI (HL-60(TB) leukemia) was 18.1 µM and the GI50 (SK-OV-3 ovarian) was 6.62 µM. It also gave a TGI (SK-OV-3 ovarian) of 35.1 µM, a GI50 (MALME-3M melanoma) of 1.01 µM and a TGI (MALME-3M melanoma) of 5.92 µM. The GI50 (PC-3 prostate) was 1.85 µM, the TGI (PC-3 prostate) was 13.2 µM and the GI50 (SR leukemia) was 0.361 µM. It also gave a TGI (SR leukemia) greater than 100 µM, a GI50 (OVCAR-3 ovarian) of 0.908 µM and a TGI (OVCAR-3 ovarian) of 7.97 µM. For the same compound, the GI50 (DU-145 prostate) was 1.26 µM, the TGI (DU-145 prostate) was 8.09 µM and the GI50 (SF-268 CNS) was 5.43 µM. It also gave a TGI (SF-268 CNS) of 18.4 µM, a GI50 (786-0 renal) of 0.963 µM and a TGI (786-0 renal) of 5.53 µM. It also gave a GI50 (SW-620 colon) of 1.83 µM, a TGI (SW-620 colon) of 15.7 µM and a GI50 (U251 CNS) of 9.39 µM. The TGI (U251 CNS) was 65.1 µM, the GI50 (RPMI-8226 leukemia) was 0.476 µM and the TGI (RPMI-8226 leukemia) was 1.17 µM. It also gave a GI50 (CCRF-CEM leukemia) of 0.761 µM, a TGI (CCRF-CEM leukemia) of 5.42 µM and a GI50 (OVCAR-5 ovarian) of 2.94 µM. For the same compound, the TGI (OVCAR-5 ovarian) was 13.6 µM, the GI50 (SNB-75 CNS) was 12.6 µM and the TGI (SNB-75 CNS) was 39.1 µM. It also gave a GI50 (SN12C renal) of 1.01 µM, a TGI (SN12C renal) of 5.31 µM and a GI50 (COLO 205 colon) of 1.27 µM. For the same compound, the TGI (COLO 205 colon) was 7.59 µM, the GI50 (NCI-H322M lung) was 16.3 µM and the TGI (NCI-H322M lung) was 32.3 µM. For the same compound, the GI50 (EKVX NSCLC) was 8.12 µM, the TGI (EKVX NSCLC) was 16.6 µM and the GI50 (RXF 393 renal) was 1.93 µM. It also gave a TGI (RXF 393 renal) of 15.3 µM, a GI50 (SK-MEL-28 melanoma) of 2.4 µM and a TGI (SK-MEL-28 melanoma) of 6.86 µM. For the same compound, the GI50 (ACHN renal) was 2.56 µM, the TGI (ACHN renal) was 25.6 µM and the GI50 (SNB-19 CNS) was 20.1 µM. For the same compound, the TGI (SNB-19 CNS) was 45.6 µM, the GI50 (NCI-H522 lung) was 1.32 µM and the TGI (NCI-H522 lung) was 35.6 µM. The GI50 (M14 melanoma) was 0.962 µM, the TGI (M14 melanoma) was 6.77 µM and the GI50 (MDA-MB-435) was 1.05 µM. It also gave a TGI (MDA-MB-435) of 8.85 µM and a GI50 (UO-31 renal) of 2.52 µM.
